Reference: PubChem BioAssay AID1645883 (National Center for Advancing Translational Sciences (NCATS), 2021)
Several values for one entry are separate records, joined by “and”; a condition that tells them apart may be missing. Equal values may be shown once. Only a part is listed here, and it is no random draw. Results filed as inconclusive are left out. Activity calls are given as the source filed them. Calls follow the shape of the dose curve; as a rule, active = well fitted activation curve with a large enough effect; inconclusive = small, poorly fitted or top-dose-only effect; inactive = no such curve, though single readings can be large or run the other way.

Amino acid sequences for entries named in this document (tags omitted).
UniProt O95398, whole entry: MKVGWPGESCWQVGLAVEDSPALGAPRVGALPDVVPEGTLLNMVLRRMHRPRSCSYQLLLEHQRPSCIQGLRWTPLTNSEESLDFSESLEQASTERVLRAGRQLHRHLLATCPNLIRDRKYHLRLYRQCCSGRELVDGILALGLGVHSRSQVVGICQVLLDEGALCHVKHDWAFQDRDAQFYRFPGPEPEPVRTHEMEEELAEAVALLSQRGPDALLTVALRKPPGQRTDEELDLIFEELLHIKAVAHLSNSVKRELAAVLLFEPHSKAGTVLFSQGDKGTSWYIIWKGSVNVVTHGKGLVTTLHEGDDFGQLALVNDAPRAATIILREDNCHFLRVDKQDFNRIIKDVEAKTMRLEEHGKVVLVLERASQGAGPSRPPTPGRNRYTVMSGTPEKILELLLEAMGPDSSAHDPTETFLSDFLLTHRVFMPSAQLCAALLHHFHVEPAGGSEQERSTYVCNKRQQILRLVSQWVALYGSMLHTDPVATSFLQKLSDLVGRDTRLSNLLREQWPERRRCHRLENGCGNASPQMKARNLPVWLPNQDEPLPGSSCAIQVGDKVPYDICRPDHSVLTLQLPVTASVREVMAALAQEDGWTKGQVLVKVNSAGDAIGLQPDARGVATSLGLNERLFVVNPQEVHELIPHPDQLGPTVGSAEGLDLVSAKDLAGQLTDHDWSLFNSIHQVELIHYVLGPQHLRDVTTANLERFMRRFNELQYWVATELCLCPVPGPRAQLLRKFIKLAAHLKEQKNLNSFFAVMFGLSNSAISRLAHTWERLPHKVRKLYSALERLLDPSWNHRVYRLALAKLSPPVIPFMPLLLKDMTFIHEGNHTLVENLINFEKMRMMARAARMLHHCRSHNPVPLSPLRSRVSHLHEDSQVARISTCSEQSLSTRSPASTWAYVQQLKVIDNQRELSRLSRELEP

target: Rap guanine nucleotide exchange factor 3 (Homo sapiens) (UniProt O95398); experiment: Validation qHTS for agonist of cAMP-regulated guanine nucleotide exchange factor 3 (EPAC1); settings: EPAC1 Rap1b BODIPY-GDP exchange, fluorescence; stronger effect = higher value; percent of cAMP control response; also: nearly all actives have a fitted effect of over 70% in size
Description: Assay Provider (PI): Xiaodong Cheng Ph.D.
The University of Texas Medical Branch, […], TX
In multi-cellular eukaryotic organisms, the effects of cAMP are transduced by two ubiquitously-expressed intracellular cAMP receptors, the classic protein kinase A/cAMP-dependent protein kinase (PKA/cAPK) and the more recently discovered exchange protein directly activated by cAMP/cAMP-regulated guanine nucleotide exchange factor (EPAC/cAMP-GEF). Both PKA and EPAC are ubiquitously expressed in all tissues, and an increase in intracellular cAMP levels will lead to the activation of both PKA and EPAC. Therefore, careful dissections of the individual role and relative contribution of EPAC and PKA within the overall cAMP signaling in various model systems are critical for further elucidating the mechanism of cAMP signaling. To date no EPAC-specific antagonists and agonist, as well as isoform-specific agonists have been reported, and developing EPAC-specific pharmacological probes to determine the physiological functions that EPAC play in the overall cAMP-mediated signaling remains a major challenge within the research field. […]
This qHTS will be used to screen the Molecular Libraries Small Molecule Repository (MLSMR) as a concentration-titration series using the NCGC unique quantitative screening (qHTS) platform to find activators for EPAC1. […] Activators are identified by monitoring the change in fluorescence signal as the exchanged free BODIPY-GDP has a reduced fluorescence compared to Rap1-bound BODIPY-GDP. […]
Briefly, three uL of reagents (100 nM EPAC1, 250 nM RAP1B-BODIPY-GDP, 50 uM GDP) were dispensed into a 1536-well Greiner black solid-bottom medium binding assay plate. […] The assay plates were read at 5 minute intervals for 30 minutes in the ViewLux plate reader using 480nm excitation and 540nm emission filters. […]
% is scaled to controls: 0 for no effect and ±100 for the full control effect.

Row | Compound | max response
1 | CCC(=O)N(c1ccccc1)C1(COC)CCN(CCc2cccs2)CC1 | inactive: 8.23%
2 | CCC(=O)N(c1ccccc1)C1(COC)CCN(CCn2nnn(CC)c2=O)CC1 | inactive: 12.1%
3 | CN(CCCl)CCCl | inactive: -7.72% and inactive: 20.7%
